According to patent US20040049009A1, “Methods for improving the antagonistic/agonistic properties of peptidic antagonists/agonists of the corticotropin-releasing factor receptor (crfr)” (priority 2000, published 2004):

T1: rat CRF binding protein C-terminally fused with a His6 sequence (rat) (UniProt P24388)
T1 sequence: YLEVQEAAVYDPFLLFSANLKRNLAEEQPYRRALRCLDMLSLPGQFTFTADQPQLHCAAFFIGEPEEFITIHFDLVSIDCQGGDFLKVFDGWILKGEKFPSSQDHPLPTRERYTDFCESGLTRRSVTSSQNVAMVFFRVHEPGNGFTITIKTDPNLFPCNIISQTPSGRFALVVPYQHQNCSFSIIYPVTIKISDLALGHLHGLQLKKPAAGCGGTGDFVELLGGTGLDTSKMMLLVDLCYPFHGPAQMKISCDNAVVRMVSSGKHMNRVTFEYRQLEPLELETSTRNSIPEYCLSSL


How the values were obtained:
[1] = target: T1, rat CRF binding protein C-terminally fused with a His6 sequence (rat); assay: SPA competition with 0.1 nM [125I-Tyr0]h/rCRF, His-tagged rCRFBP; 95% CI (420-530)
[2] = target: mouse CRF receptor, type 2β (mouse) (UniProt Q60748); assay: SPA competition with 0.05 nM [125I-Tyr0]Svg, HEK-293 membranes; 95% CI (25-59)
[3] = target: T1, rat CRF binding protein C-terminally fused with a His6 sequence (rat); assay: SPA competition with 0.1 nM [125I-Tyr0]h/rCRF, His-tagged rCRFBP; 95% CI (0.38-0.71)

Row | IC50 [1] | IC50 [2] | IC50 [3] | Binder
1 | 470 nM |  |  | SQEPPISLDLTFHLLREVLEMTKADQLAQQAHSNRKLLDIA (ligand, UniProt P01142 148-188, looked up, Corticoliberin) [ovine corticotropin-releasing factor]
2 |  | 42 nM | 0.54 nM | SEEPPISLDLTFHLLREVLEMARAEQLAQQAHSNRKLMEII (ligand) [human/rat corticotropin-releasing factor]
